Earlier results on one compound are cited in patent publication US12144788B2, “Visual cycle modulators” (CASE WESTERN RESERVE UNIVERSITY, priority 2017, dated 2024).

Chains of the proteins cited; added tags and fusions are not shown. Lines headed by an entry give the natural chain unless they say otherwise; changes in a name come on top.
UniProt Q28175: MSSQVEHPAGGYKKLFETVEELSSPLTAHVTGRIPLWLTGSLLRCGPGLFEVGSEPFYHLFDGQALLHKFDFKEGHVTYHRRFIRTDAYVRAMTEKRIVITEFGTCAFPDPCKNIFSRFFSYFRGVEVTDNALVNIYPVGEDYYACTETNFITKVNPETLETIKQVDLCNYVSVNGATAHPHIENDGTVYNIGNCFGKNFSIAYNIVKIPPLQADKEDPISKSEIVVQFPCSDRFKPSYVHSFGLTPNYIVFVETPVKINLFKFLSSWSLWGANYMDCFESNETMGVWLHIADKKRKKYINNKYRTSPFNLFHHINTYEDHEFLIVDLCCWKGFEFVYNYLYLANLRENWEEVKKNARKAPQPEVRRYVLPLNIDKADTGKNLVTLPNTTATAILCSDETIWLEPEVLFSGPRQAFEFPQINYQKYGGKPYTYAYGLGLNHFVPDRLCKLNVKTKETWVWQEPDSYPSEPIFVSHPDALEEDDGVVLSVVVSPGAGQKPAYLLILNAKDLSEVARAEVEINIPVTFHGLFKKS

In this data set the target is RPE65 (Bos taurus, UniProt Q28175). The following applies: previously reported; cited from earlier work.

On to `NCC[C@@H](O)c1cccc(OCC2CCCCC2)c1`, for which the “times more potent than the S-isomer” value was around 1.6 times.
